Sampled rows, rich in hits. Any-hit rate of the full collection: about 3.7%.
Nrf2 ARE act: activates Nrf2 signaling | AREc32 ARE-luciferase reporter (MCF7-derived line), luminescence, 24 h | Potency, µM (titrated, usually from 46.1 µM), for inactives: at the highest dose activation, usual class: activators | 0.31% of 410,000 active | AID 624171; note: potency is the fitted concentration of half-maximal effect; % of control where 0% means no effect; nearly all actives have a fitted effect of over 65% in size
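AREc32 cells carrying an ARE-driven firefly luciferase reporter were seeded at 1000 cells/well in OPTI-MEM with 5% FBS, then exposed to compound for 24 hr at 37 deg C. Luminescence was read with Steady-Glo after 30 min at RT.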
Nrf2 block: inhibitors of Nrf2 signaling; A549 ARE-Fluc reporter, luciferase luminescence, 18-24 h; Potency, µM (doses to about 46 µM), for the others: top-dose activity change, negative = inhibition, most hits filed as inhibitors; 2.1% of 360,000 active; note: potency is the fitted concentration of half-maximal effect; % is set by controls: 0 for no effect and ±100 for the full control effect; nearly all actives have a fitted effect of over 60% in size
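In this cell-based qHTS, ARE-driven firefly luciferase in A549 cells reports Nrf2 activity; the luminescent signal after BugLite lysis is the measured value, with a prior CellTiter-Fluor read for cell health.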
miR-21 reporter: miR-21 reporter, rising signal; HeLa miR-21 FLuc reporter, luciferase, 48 h; Potency, µM (titrated, usually from 38.3 µM), without a hit: top-dose reporter change, positive = more light; AID 2288; 340,000 tested, under 10 active; active = well fitted rising curve with a large enough effect; inconclusive = small, poorly fitted or top-dose-only effect; inactive = no such curve, though single readings can be large or run the other way;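 further: % of control where 0% means no effect; miR-21 action dims this reporter so a rising signal means less miR-21 action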
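HeLa cells stably expressing CMV-driven firefly luciferase with a downstream miR-21 binding sequence, endogenously expressing miR-21, were treated with titrations (up to about 40uM final) for 48 hours at 37 degree Celsius. Luciferase luminescence was read after lysis.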
TCR activator: T cell receptor activation | primary human leukocytes, anti-CD3, IL-2 HTRF, 48 h | Potency, µM (titrated, usually from 9.22 µM), without a hit: at the top dose activation of IL-2 secretion, most hits filed as activators | 330,000 tested, under 10 active | AID 504894; note: % of control where 0% means no effect
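48 hr co-incubation of compounds, a-CD3 beads and primary human leukocytes; IL-2 quantified homogeneously by HTRF with anti-IL-2 K and d2 conjugates.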
A549 viability: counter-screen for Nrf2 inhibitors: cytotoxicity in A549 cells; 0.16% of 390,000 active; AID 504648; A549 ARE-Fluc cells, CellTiter-Fluor viability, 18-24 h; Potency, µM (doses to about 46 µM), without a hit: at the highest dose activity change, negative = cytotoxicity, usual class: inhibitors; note: potency is the fitted concentration of half-maximal effect; % is set by controls: 0 for no effect and ±100 for the full control effect
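Cytotoxicity counterscreen: CellTiter-Fluor fluorescence was measured in A549 ARE_Fluc cells after 18-24 h of compound exposure in a concentration series. The subsequent BugLite luminescent read reports ARE-luciferase activity.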
ClpP mod: qHTS Assay for Activators of ClpP; ATP-dependent Clp protease proteolytic subunit (Bacillus subtilis (strain 168)), P80244; 1.9% of 340,000 active; purified B. subtilis ClpP, FRET peptide cleavage, 20 min; Potency, µM (series often up to 57.5 µM), inactives show at the highest dose activity change, negative = active; active = well fitted falling curve with a large enough effect; inconclusive = small, poorly fitted or top-dose-only effect; inactive = no such curve, though single readings can be large or run the other way; note: potency is the fitted concentration of half-maximal effect; the source files actives as falling curves though it sought activators and does not explain the sign; nearly all actives have a fitted effect of over 65% in size
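FRET quenching reversal measured ClpP activation: 10 microg/mL B. subtilis ClpP at pH 8 with the FRET-FV decapeptide, read at 430 nm after 320 nm excitation. The 20-min minus 0-min signal was scaled between DMSO/no-enzyme wells and ADEP (5.8 microM final).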
* marks the source's active call; other numbers are inactive results; ? = inconclusive; . = no result; [ ] = remark or other dose. Unless noted, calls come from the whole dose curve; as a rule, active = well fitted curve in the direction sought with a large enough effect; inconclusive = small, poorly fitted or top-dose-only effect, or another doubt; inactive = no such curve, though single readings can be large; an effect the other way counts as inactive or inconclusive.

Chains of the proteins cited; added tags and fusions are not shown.
ATP-dependent Clp protease proteolytic subunit (Bacillus subtilis (strain 168)), P80244, UniProt P80244, whole entry, looked up: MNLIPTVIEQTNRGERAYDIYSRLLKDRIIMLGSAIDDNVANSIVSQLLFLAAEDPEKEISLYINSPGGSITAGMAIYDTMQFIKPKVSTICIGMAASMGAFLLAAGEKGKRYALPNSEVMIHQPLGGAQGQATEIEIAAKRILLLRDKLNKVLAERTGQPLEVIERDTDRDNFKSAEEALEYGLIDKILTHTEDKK

| # | structure | Nrf2 ARE act | miR-21 reporter | ClpP mod | A549 viability | TCR activator | Nrf2 block |
| --- | --- | --- | --- | --- | --- | --- | --- |
| 1 | O=c1cc(-c2ccccc2Cl)oc2c([N+](=O)[O-])c(O)cc(O)c12 | -3% | ? | 0% | ? | 1% | 13µM* |
| 2 | Cc1ccccc1C(=O)Nc1cccc(OCc2cc(=O)n3c4c(sc3n2)CCCC4)c1 | 0% | -22% | -28% | 6% | . | 22% |
| 3 | COc1ccc(-n2nc(C(=O)NCC(=O)Nc3cccc(Cl)c3)c3ccccc3c2=O)cc1OC | 0% | 7% | . | -18% | 5% | 15µM* |
| 4 | O=C(CSc1c2c(nc3cc(Cl)ccc13)CCCC2)NCCN1CCOCC1 | 16% | 1% | . | -6% | . | 6% |
| 5 | Clc1ccc2c(SCC3CO3)c3ccccc3nc2c1 (configuration not stated) | 16% | . | 32µM* | -3% | 1% | -18% |
| 6 | COc1cc(N2CCCC2)c(OC)cc1/C=C(/C#N)c1cccc(F)c1 | 0% | -1% | 1% | 0% | -1% | 2% |
| 7 | N#C/C(=C/c1ccc(N2CCCCCC2)o1)c1ccc(F)cc1 | 25% | . | 32µM* | -13% | -35% | ? |
| 8 | N#C/C(=C/c1ccc(N2CCCCCC2)o1)c1cccc(F)c1 | 13µM* | -1% | -2% | ? | -5% | . |
| 9 | CN(Cc1ccc(Cl)cc1Cl)C(=O)C1CC(=O)N(Cc2ccco2)C1 (configuration not stated) | -1% | . | 0% | . | . | . |
| 10 | CCOC(=O)c1cccc(Nc2c3c(nc4ccccc24)CCC3)c1 | -2% | ? | -12% | -16% | . | 21µM* |
| 11 | CC(=O)c1cccc(Nc2c3c(nc4ccccc24)CCC3)c1 | 0% | 25% | -2% | 1% | 5% | -14% |
| 12 | COC(=O)c1cccc(Nc2c3c(nc4ccccc24)CCC3)c1 | 0% | 26% | -1% | -27% | -2% | 23µM* |
| 13 | COc1ccccc1-n1c(N)c(C(=O)NCC2CCCO2)c2nc3ccccc3nc21 (configuration not stated) | 3% | 0% | 25µM* | ? | -7%[46.1 µM] | -12% |
| 14 | Nc1c(C(=O)OCC2CCCO2)c2nc3ccccc3nc2n1C1CCCCC1 (configuration not stated) | 0% | 0% | 14µM* | -1% | . | . |
| 15 | O=C(NCC1CCCO1)c1ccccc1 (configuration not stated) | -1% | -7% | -2% | -7% | 9% | -8% |
| 16 | Nc1c(C(=O)NCC2CCCO2)c2nc3ccccc3nc2n1-c1ccccc1 (configuration not stated) | 3% | 14% | 16µM* | ? | -6% | . |
| 17 | c1ccc2c(CCc3c[nH]c4ccccc34)ccnc2c1 | . | . | -7% | . | . | . |
| 18 | Cc1ccc(C)c(-c2[nH]c3c(c2-c2c(-n4cccc4)n(C)c(=O)[nH]c2=O)c(=O)[nH]c(=O)n3C)c1 | -1% | 2% | 1% | 8% | . | -2% |
| 19 | COC[C@@H]1CCCN1c1ccc2c(c1)O[C@H](COCc1ccccc1)CN([C@@H](C)c1ccccc1)S2(=O)=O | 0% | . | ? | . | . | . |
| 20 | COC[C@H]1CCCN1c1ccc2c(c1)O[C@@H](COCc1ccccc1)CN([C@H](C)c1ccccc1)S2(=O)=O | 0% | . | 5.6µM* | . | . | . |
| 21 | Clc1nc(Nc2ccccc2)nc(Nc2ccccc2)n1 | ? | -17% | 32µM* | 6% | 7%[46.1 µM] | 15% |
| 22 | CC(C)(C)Nc1nc(Cl)nc(Nc2ccccc2)n1 | 4% | -40% | 1% | -1% | 3% | ? |
| 23 | COc1ccccc1CNC(=O)CSc1ccc(-c2sc(-c3ccccc3)nc2C)nn1 | 3% | 1% | 28µM* | -1% | . | ? |
| 24 | CC(=O)c1cccc(NC(=O)CSc2ccc(-c3sc(C)nc3C)nn2)c1 | 7% | 20% | -1% | 2% | 3% | -15% |
| 25 | CCOc1ccccc1NC(=O)CSc1ccc(-c2sc(C)nc2C)nn1 | 6% | 6% | 2% | 3% | -8% | 21µM* |

One compound at a time, as listed above.
COc1ccccc1CNC(=O)CSc1ccc(-c2sc(-c3ccccc3)nc2C)nn1 reads Nrf2 ARE act: 3%; miR-21 reporter: 1%; ClpP mod: 28µM*; A549 viability: -1%; TCR activator: .; Nrf2 block: ?
CC(=O)c1cccc(NC(=O)CSc2ccc(-c3sc(C)nc3C)nn2)c1 reads Nrf2 ARE act: 7%; miR-21 reporter: 20%; ClpP mod: -1%; A549 viability: 2%; TCR activator: 3%; Nrf2 block: -15%
